Reference: US12274710B2, “Compound for regulating body weight imbalance, composition thereof and application thereof” (GUANGZHOU CENTURY CLINICAL RESEARCH CO., LTD, priority 2019, dated 2025)
Read-outs that look alike come from different tables or passages of the source.

Test system: persons suffering from weight imbalance
Conditions: A person

dosmalfate [compound 3]
Adverse reactions (1 g twice a day, two months): No adverse reactions | Adverse reactions (1.5 g three times a day, three months): only mild constipation
